## Antibody variant affinities, Ab-14 heavy chain, assay 1

Source: Engelhart et al. 2022 (doi:10.1038/s41597-022-01779-4), MIT Lincoln Laboratory and A-Alpha Bio; data file from the FLAb repository.

Target: peptide PDVDLGDISGINAS, taken from heptad repeat 2 (HR2) of SARS-CoV-2 spike.

Parent: Ab-14, a human scFv built as VH, a (GGGGS)3 linker, VL. Only the CDRs of the heavy chain vary.
VH: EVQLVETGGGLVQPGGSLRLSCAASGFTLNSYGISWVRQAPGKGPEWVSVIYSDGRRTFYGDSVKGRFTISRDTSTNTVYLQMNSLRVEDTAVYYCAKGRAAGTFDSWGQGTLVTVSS
VL: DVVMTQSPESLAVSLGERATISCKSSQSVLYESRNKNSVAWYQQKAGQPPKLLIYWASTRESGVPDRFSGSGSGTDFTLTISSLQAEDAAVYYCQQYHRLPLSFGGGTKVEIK

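The parent was found by panning a naive human phage display library on the peptide. In library AAYL49, one, two or three CDR residues were substituted; doubles and triples were drawn at random. Affinity was read by AlphaSeq, a pooled yeast mating assay with surface-displayed partners. Mating (16 h, 30 °C) was followed by selection of diploids and sequencing of their barcodes. Each replicate has its own calibration line, from reference interactions of the BCL2 family. There are three technical replicates.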

Each variant is given by its three heavy chain CDRs, as the data file delimits them; those of the parent are GFTLNSYGIS, VIYSDGRRTFYGDSVK, GRAAGTFDS. Every variant below is changed at F27 of the VH (sequential numbering). Numbers give log10(Kd / nM), so 0 is 1 nM and 3 is 1 µM. Smaller is tighter. Averages over replicates are reported, and they cover detected replicates only. "no signal" means that the variant was in the library but no mating with the target was seen in any replicate; the authors take this as a sign of poor binding, and no number exists. Parent in this assay: reference entry 0.65, copy in this library 4.11 (one replicate of three). Empty control strains, which show no peptide, gave a signal in 15% of pairings with library AAYL49; the median was 4.06 and 95% of these signals were weaker than 2.83. No background was subtracted. Also given: how often the same scFv was detected with the empty control strains.

For GCTLNSYGIS / VVYSDGRRTFYGDSVK / GRAAGHFDS, the assay gave no signal (0 of 3 replicates; controls 5 of 9).
For GVTLNSYGIS / VIYSDGRRTFYNYSVK / GRAAGTFDS, the assay gave no signal (0 of 3 replicates; controls 0 of 9).
For GQTLNSYGIS / DIYSDGRRTFYGDSVK / GRSAGTFDS, the assay gave 5.65 (1 of 3 replicates; controls 1 of 9).
For GKTLNSYGIS / VWYSDGRRTFYGDSVK / GRMAGTFDS, the assay gave 4.78 (1 of 3 replicates; controls 1 of 9).
For GCTLNSYGIS / VIYSDGRRTFSGDSVK / GRAAQTFDS, the assay gave 3.07 (1 of 3 replicates; controls 0 of 9).
For GQTLNSYGIS / VIYSDRRRTFYFDSVK / GRAAGTFDS, the assay gave 5.40 (1 of 3 replicates; controls 3 of 9).
For LMTLNSYGIS / VIYSDGRRTFYGDSVK / GRAATTFDS, the assay gave no signal (0 of 3 replicates; controls 0 of 9).
For GRTLNSYGIS / VIYSDGRRTFYGDSVK / GRAAGTFDS, the assay gave 2.08 (3 of 3 replicates; controls 2 of 9).
For GCTLNWYGIS / VIYLDGRRTFYGDSVK / GRAAGTFDS, the assay gave 3.28 (1 of 3 replicates; controls 1 of 9).
For GWTLNSYGIS / VQYSFGRRTFYGDSVK / GRAAGTFDS, the assay gave no signal (0 of 3 replicates; controls 2 of 9).
For GTTLNSYIIS / VIYSDGRRTFYGDSVN / GRAAGTFDS, the assay gave 4.63 (1 of 3 replicates; controls 1 of 9).
For GCTLNSYGIS / VIYSDGRFTFYGISVK / GRAAGTFDS, the assay gave no signal (0 of 3 replicates; controls 0 of 9).
For GATLNSYGIS / VIYSDGRRTFYGDSVC / GRAAGTQDS, the assay gave 3.39 (1 of 3 replicates; controls 0 of 9).
For GYTFNSYGIS / VIYHDGRRTFYGDSVK / GRAAGTFDS, the assay gave 3.47 (3 of 3 replicates; controls 3 of 9).
For GDTLNSYGAS / VIYSDGRRTFYGDSVK / GWAAGTFDS, the assay gave no signal (0 of 3 replicates; controls 3 of 9).
For GWTLNSYGIS / VIYSDGRRTFYRDSVK / GRAIGTFDS, the assay gave 3.41 (3 of 3 replicates; controls 0 of 9).
For GQTLNSYGID / VIYSDGRRTFYGDSVD / GRAAGTFDS, the assay gave 5.35 (1 of 3 replicates; controls 0 of 9).
For CMTLNSYGIS / VIYSDGRRTFWGDSVK / GRAAGTFDS, the assay gave no signal (0 of 3 replicates; controls 1 of 9).
For QSWLNSYGIS / VIYSDGRRTFYGDSVK / GRAAGTFDS, the assay gave 2.11 (3 of 3 replicates; controls 0 of 9).
For GTTLNSYGIS / VIYSDGRRTFYGDSVK / GRAMGTFDC, the assay gave 1.28 (3 of 3 replicates; controls 0 of 9).
For GDTLNSYGIS / VIPSDGRRTFYGDSVE / GRAAGTFDS, the assay gave no signal (0 of 3 replicates; controls 0 of 9).
For GETLNSYGIS / VIYSKGRRTFTGDSVK / GRAAGTFDS, the assay gave 5.72 (2 of 3 replicates; controls 2 of 9).
For AATLNSYGIS / VIYSDHRRTFYGDSVK / GRAAGTFDS, the assay gave no signal (0 of 3 replicates; controls 0 of 9).
For GPELNSYGIS / VIYSDGRRTFYGDSVD / GRAAGTFDS, the assay gave 3.11 (3 of 3 replicates; controls 1 of 9).
For GSTLNSYGIS / VIYSDGRPTFPGDSVK / GRAAGTFDS, the assay gave 4.19 (2 of 3 replicates; controls 1 of 9).
For GITLYSYGIS / VIYSDGRRTFYGDSHK / GRAAGTFDS, the assay gave no signal (0 of 3 replicates; controls 2 of 9).
For GETLNSYGIS / VIYSWGRRTFYGDSVK / GRAACTFDS, the assay gave no signal (0 of 3 replicates; controls 1 of 9).
For GHTLNSYGIS / VILSDGRRTFYGDSVK / GRAQGTFDS, the assay gave 5.05 (3 of 3 replicates; controls 4 of 9).
For GSTLNSYGIS / VIYSDGNRTFYGDSVK / GRCAGTFDS, the assay gave no signal (0 of 3 replicates; controls 0 of 9).
For GDTLNSYGIS / VIYSDGRRTFYGDSVT / GRAANTFDS, the assay gave 1.33 (3 of 3 replicates; controls 0 of 9).
For GSTRNSYGIS / VICSDGRRTFYGDSVK / GRAAGTFDS, the assay gave no signal (0 of 3 replicates; controls 0 of 9).
For GGTLNSYGIS / VIYSDGRRTLFGDSVK / GRAAGTFDS, the assay gave no signal (0 of 3 replicates; controls 1 of 9).
For GRTLNSYGIS / VIYSDGERTFYGDSVK / GRAAGTFDS, the assay gave no signal (0 of 3 replicates; controls 0 of 9).
For GNTTNKYGIS / VIYSDGRRTFYGDSVK / GRAAGTFDS, the assay gave 2.83 (1 of 3 replicates; controls 2 of 9).
For GMTLNSYGNE / VIYSDGRRTFYGDSVK / GRAAGTFDS, the assay gave no signal (0 of 3 replicates; controls 2 of 9).
For GVTLNSYGIS / VIYSDGRRTFRGDSVK / GRAAGTFLS, the assay gave no signal (0 of 3 replicates; controls 1 of 9).
For GGTLNSYGIS / VIYSRGRRTFYGDSVK / GRAAGTFDS, the assay gave 3.01 (1 of 3 replicates; controls 0 of 9).
For GYTLNSYGDS / VIYSDGRRTFYGNSVK / GRAAGTFDS, the assay gave 3.36 (1 of 3 replicates; controls 2 of 9).
For GYTLNSYGIS / VIYSDGRRTFYGISVK / GRAAWTFDS, the assay gave 4.82 (1 of 3 replicates; controls 1 of 9).
For GATLNSYGIS / VIYSDGRRTFYGDSVK / GRAAGTFDS, the assay gave 1.86 (3 of 3 replicates; controls 8 of 9).